Screening results deposited in PubChem BioAssay by National Center for Advancing Translational Sciences (NCATS).
Rango release inh = qHTS Assay for Inhibitors of RanGTP induced Rango (Ran-regulated importin-beta cargo) - Importin beta complex dissociation; Snurportin-1 (Homo sapiens) + GTP-binding nuclear protein Ran (Homo sapiens) + Importin …; Biochemical FRET Rango-importin beta, RanGTP-induced dissociation; Potency, µM (doses to about 46.1 µM), for the others: at the highest dose activity change, negative = inhibition; 340,000 tested, 0.071% active; AID 540253, 2011; calls by dose curve; note: % of control where 0% means no effect; nearly all actives have a fitted effect of over 45% in size
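Compounds preincubate 5 min with complex of recombinant Rango and importin beta in PBS with 1 mM DTT. Ran (0.6 uM) loaded with 2 mM GTP plus 0.2 uM RCC1 starts dissociation; FRET is recorded 45 min later.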
A549 viability = Nrf2 qHTS screen for inhibitors: counterscreen for cytotoxicity; A549 ARE-Fluc cells, CellTiter-Fluor viability, 18-24 h; Potency, µM (top dose mostly 46 µM), for inactives: at the top dose activity change, negative = cytotoxicity, hits mostly inhibitors; 390,000 tested, 0.16% active; AID 504648, 2011; note: % is set by controls: 0 for no effect and ±100 for the full control effect
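A549 ARE-Fluc cells in 5% FBS OPTI-MEM, 5000 cells/well, rested 2 h then exposed to compounds in concentration-response for 18-24 h at 37 °C. Viability by CellTiter-Fluor fluorescence (Ex 405/Em 525) after 30 min; luciferase luminescence (BugLite, 15 min, RT) read afterwards.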
Rango complex inh = qHTS Assay for Inhibitors of Rango (Ran-regulated importin-beta cargo) - Importin beta complex formation; Importin subunit beta-1 (Homo sapiens), Q14974; Rango CFP/YFP FRET sensor + importin beta, 45 min; Potency, µM (titrated, usually from 92.2 µM), for inactives: top-dose inhibition of complex formation; 340,000 tested, 0.031% active; calls by dose curve;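 note: 0% = DMSO wells and 100% = buffer wells lacking importin beta; nearly all actives have a fitted effect of over 15% in size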
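Inhibition scored from the CFP 486 nm/YFP 530 nm FRET ratio 45 min after adding 0.125 microM importin beta to 50 nM Rango biosensor preincubated 5 min with compound (room temperature, PBS with DTT, Tween-20, BSA). No-importin wells as positive control.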
Nrf2 block = Nrf2 qHTS screen for inhibitors; A549 ARE-Fluc reporter, luciferase luminescence, 18-24 h; Potency, µM (doses to about 46 µM), without a hit: at the top dose activity change, negative = inhibition, most hits filed as inhibitors; 360,000 tested, 2.1% active; AID 504444, 2011; note: % is set by controls: 0 for no effect and ±100 for the full control effect; nearly all actives have a fitted effect of over 60% in size
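A549 ARE_Fluc cells, 5000/well, 5% FBS OPTI-MEM; compounds in dose-response, 18-24 h at 37 °C/5% CO2; CellTiter-Fluor viability read (Ex 405/Em 525), then BugLite luciferase luminescence = Nrf2 activity.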
Nrf2 activator = qHTS of Nrf2 Activators; AREc32 ARE-luciferase reporter (MCF7-derived line), luminescence, 24 h; Potency, µM (series often up to 46.1 µM), without a hit: top-dose activation, hits mostly activators; 410,000 tested, 0.31% active; AID 624171, 2012; note: % of control where 0% means no effect; nearly all actives have a fitted effect of over 65% in size
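Reporter line AREc32 (ARE-Fluc), seeded overnight in OPTI-MEM with 5% FBS; compound pin-transferred, 24 hr at 37 deg C, 5% CO2; luminescent read-out.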
Active calls of the source: *. Only some compounds are listed: those with a hit (about 2.3% of all), similar ones and a draw of the others. Unless noted, calls come from the whole dose curve; as a rule, active = well fitted curve in the direction sought with a large enough effect; inconclusive = small, poorly fitted or top-dose-only effect, or another doubt; inactive = no such curve, though single readings can be large; an effect the other way counts as inactive or inconclusive. Potency is the fitted concentration of half-maximal effect.

By UniProt entry, the sequences of proteins in these tests, tags left out.
Importin subunit beta-1 (Homo sapiens), Q14974, UniProt Q14974, whole entry, looked up: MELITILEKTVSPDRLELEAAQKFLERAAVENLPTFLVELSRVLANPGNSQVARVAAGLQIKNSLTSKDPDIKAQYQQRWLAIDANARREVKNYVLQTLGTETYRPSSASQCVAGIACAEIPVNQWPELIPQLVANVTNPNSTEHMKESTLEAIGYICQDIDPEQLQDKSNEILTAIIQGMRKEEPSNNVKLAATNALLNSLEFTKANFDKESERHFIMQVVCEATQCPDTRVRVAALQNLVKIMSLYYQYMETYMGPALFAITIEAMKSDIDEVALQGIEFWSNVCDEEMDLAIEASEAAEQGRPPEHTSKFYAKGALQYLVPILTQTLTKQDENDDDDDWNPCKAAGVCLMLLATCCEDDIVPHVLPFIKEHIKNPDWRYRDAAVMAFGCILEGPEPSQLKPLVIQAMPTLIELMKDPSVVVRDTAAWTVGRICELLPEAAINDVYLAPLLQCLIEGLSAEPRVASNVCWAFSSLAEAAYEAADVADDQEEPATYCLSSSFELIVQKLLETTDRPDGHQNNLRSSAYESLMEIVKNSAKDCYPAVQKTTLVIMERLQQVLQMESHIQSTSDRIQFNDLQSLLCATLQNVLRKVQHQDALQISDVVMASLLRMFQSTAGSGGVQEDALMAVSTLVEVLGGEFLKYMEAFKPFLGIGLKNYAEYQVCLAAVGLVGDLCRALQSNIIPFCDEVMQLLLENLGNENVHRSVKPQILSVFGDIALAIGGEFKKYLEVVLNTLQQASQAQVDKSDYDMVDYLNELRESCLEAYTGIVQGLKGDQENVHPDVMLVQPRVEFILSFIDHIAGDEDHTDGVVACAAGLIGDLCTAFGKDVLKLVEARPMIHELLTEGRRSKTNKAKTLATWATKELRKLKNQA

CCN(Cc1ccccc1)C(=O)c1ccc(NC(=O)c2ccc(OC)cc2)cc1 was read as Rango release inh -2%, A549 viability -15%, Rango complex inh 1%, Nrf2 block 23µM* and Nrf2 activator 0%.
`Clc1ccc(CON/C=N/c2ncnc3sccc23)cc1` gave Rango release inh 11%, A549 viability -11%, Rango complex inh -1%, Nrf2 block 21µM* and Nrf2 activator 0%.
O=C(Nc1ccc(N2CCCCC2)c(Cl)c1)c1ncn[nH]1 was read as Rango release inh -2%, A549 viability -1%, Rango complex inh 0%, Nrf2 block 8.2µM* and Nrf2 activator 0%.
O=C(Nc1ccc(N2CCCC2)c(Cl)c1)c1ccco1 was read as Rango release inh 6%, A549 viability 2%, Rango complex inh -2%, Nrf2 block inconclusive and Nrf2 activator 0%.
`COc1cc(Cn2c(=O)oc3ccc(C)cc32)ccc1OCCC(C)C` gave A549 viability -8%, Nrf2 block 21µM* and Nrf2 activator 4%.
O=C(O)COc1ccc(/C=N/NC(=O)c2ccc(-c3csc(Nc4ccc(Cl)cc4)n3)cc2)cc1 was read as Rango release inh -15%, A549 viability -3%, Rango complex inh 52µM*, Nrf2 block 15% and Nrf2 activator 4%.
Screening Cc1sc(NC(=O)c2cccs2)c(C(N)=O)c1C returned Rango release inh -4%, A549 viability 3%, Rango complex inh -3%, Nrf2 block inconclusive and Nrf2 activator 10µM*.
For COc1ccc(C2(CNC(=O)c3cccs3)CCOCC2)cc1 the results were Rango release inh 15%, A549 viability 15%, Rango complex inh 1%, Nrf2 block -3% and Nrf2 activator 0%.
Screening CS(=O)(=O)c1ccc(Cl)c(NC(=O)COC(=O)c2ccc(F)cc2Cl)c1 returned Rango release inh 4%, A549 viability 13%, Rango complex inh 2%, Nrf2 block 12µM* and Nrf2 activator -1%.
`CS(=O)(=O)c1ccc(Cl)c(NC(=O)CCl)c1` gave Rango release inh 0%, A549 viability -15%, Rango complex inh 7%, Nrf2 block 21µM* and Nrf2 activator inconclusive.
Screening Cc1ccc(Cn2c(C)c3cnn(CC(=O)NCCc4ccc(Cl)cc4)c(=O)c3c2C)cc1 returned A549 viability -2%, Nrf2 block -19% and Nrf2 activator 2%.
Screening O=C(CCc1ccccc1)c1nnc(-c2ccccc2)o1 returned Rango release inh inconclusive, A549 viability 12%, Rango complex inh 0%, Nrf2 block inconclusive and Nrf2 activator 1%.
`O=C(c1ccc(Sc2cccc(Cl)c2)c([N+](=O)[O-])c1)N1CCN(c2ccccn2)CC1` gave Rango release inh inconclusive, A549 viability -12%, Rango complex inh -1%, Nrf2 block 16µM* and Nrf2 activator 1%.
`CCOC(=O)c1ccc(N(CCC2CO2)S(=O)(=O)c2ccc(C)cc2)cc1` (centres undefined) gave Rango release inh inconclusive, A549 viability -6%, Rango complex inh -3%, Nrf2 block -23% and Nrf2 activator 3%.
COCC(C)N1C(=O)Cc2c1nc(N)c1c(N)nc(N3CCN(c4ccccc4F)CC3)c(C#N)c21 (centres undefined) was read as Rango release inh -4%, A549 viability -11%, Rango complex inh 0%, Nrf2 block 12µM* and Nrf2 activator 0%.
Screening COCCN1C(=O)Cc2c1nc(N)c1c(N)nc(N3CCN(c4ccc(F)cc4)CC3)c(C#N)c21 returned Rango release inh -18%, A549 viability -4%, Rango complex inh -11%, Nrf2 block 12% and Nrf2 activator 0%.
Screening COc1ccc(-c2nc3ccc(C)cn3c2NCc2ccccc2)cc1SC1CCCCC1 returned Rango release inh inconclusive, A549 viability inconclusive, Rango complex inh inconclusive, Nrf2 block inconclusive and Nrf2 activator 1%.

Arranged by count of non-hydrogen atoms (largest number first): part of the list above
`CCOC(=O)c1ccc(N(CCC2CO2)S(=O)(=O)c2ccc(C)cc2)cc1` (centres undefined) gave Rango release inh inconclusive, A549 viability -6%, Rango complex inh -3%, Nrf2 block -23% and Nrf2 activator 3%.
`COc1cc(Cn2c(=O)oc3ccc(C)cc32)ccc1OCCC(C)C` gave A549 viability -8%, Nrf2 block 21µM* and Nrf2 activator 4%.
O=C(Nc1ccc(N2CCCCC2)c(Cl)c1)c1ncn[nH]1 was read as Rango release inh -2%, A549 viability -1%, Rango complex inh 0%, Nrf2 block 8.2µM* and Nrf2 activator 0%.
